Columns and labels:
[1] = molecular target: human mu-opioid peptide (hMOP) receptor (Homo sapiens (Human), UniProt P35372); experiment: hMOP receptor binding assay (SPA, [3H]naloxone); settings: for Ki: read-out: hMOP Ki
[2] = molecular target: human nociceptin/orphanin FQ peptide (hNOP) receptor (Homo sapiens (Human), UniProt P41146); experiment: hNOP receptor binding assay (SPA, [leucyl-3H]nociceptin); settings: read-out: hNOP Ki

Chains of the proteins cited; added tags and fusions are not shown. Lines headed by an entry give the natural chain unless they say otherwise; changes in a name come on top.
UniProt P35372, whole entry, looked up: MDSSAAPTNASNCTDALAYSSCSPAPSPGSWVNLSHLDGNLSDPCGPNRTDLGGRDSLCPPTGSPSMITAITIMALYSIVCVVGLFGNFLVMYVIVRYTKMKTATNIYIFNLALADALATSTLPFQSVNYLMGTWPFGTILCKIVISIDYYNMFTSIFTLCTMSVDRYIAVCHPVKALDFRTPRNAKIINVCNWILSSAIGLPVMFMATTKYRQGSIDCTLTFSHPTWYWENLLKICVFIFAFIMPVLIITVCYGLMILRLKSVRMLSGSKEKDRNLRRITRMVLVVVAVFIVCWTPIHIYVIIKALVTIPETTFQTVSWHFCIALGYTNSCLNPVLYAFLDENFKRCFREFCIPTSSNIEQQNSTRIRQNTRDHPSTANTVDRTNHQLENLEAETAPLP
UniProt P41146: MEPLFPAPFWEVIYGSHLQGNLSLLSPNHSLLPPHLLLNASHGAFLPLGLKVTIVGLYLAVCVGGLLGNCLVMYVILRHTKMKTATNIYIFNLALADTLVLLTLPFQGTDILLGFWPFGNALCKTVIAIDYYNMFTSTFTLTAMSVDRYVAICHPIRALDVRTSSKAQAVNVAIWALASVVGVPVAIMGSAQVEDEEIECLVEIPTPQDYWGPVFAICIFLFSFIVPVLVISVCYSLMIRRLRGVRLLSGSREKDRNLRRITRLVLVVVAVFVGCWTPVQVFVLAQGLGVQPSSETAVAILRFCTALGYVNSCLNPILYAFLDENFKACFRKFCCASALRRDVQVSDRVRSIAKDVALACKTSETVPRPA

Row | Structure (SMILES) | Ki [1] [nM] | Ki [2] [nM] | hMOP % inhibition at 1 μM [1] [%@1 μM]
1 | Cc1ccc(S(=O)(=O)N2C(=O)NC[C@]23CC[C@](c2ccccc2)(N(C)C)CC3)cc1 | 185 | 815 | –
2 | CN(C)[C@]1(c2ccccc2)CC[C@]2(CC1)CN(CC(C)(C)S(C)(=O)=O)C(=O)N2CC1CCC1 | 76 | 0.4 | –
3 | CN(C)[C@]1(c2ccccc2)CC[C@]2(CC1)CN(C1CCN(c3ccccc3)CC1)C(=O)N2 | 4150 | 145 | –
4 | CN(C)[C@]1(c2ccccc2)CC[C@]2(CC1)CN(CC1(O)CCOCC1)C(=O)N2CC1(O)CCC1 | 1060 | 19 | –
5 | CN(C)[C@]1(c2ccccc2)CC[C@]2(CC1)CN(CCS(C)(=O)=O)C(=O)N2 | 8530 | 345 | –
6 | CN[C@]1(c2ccccc2)CC[C@]2(CC1)CN(CC(C)(C)C#N)C(=O)N2 | – | 690 | 4
7 | CN(C)[C@]1(c2ccccc2)CC[C@]2(CC1)CN(CC1CCOCC1)C(=O)N2CC1(O)CCC1 | 206 | 26 | –
8 | CN(C)[C@]1(c2ccccc2)CC[C@]2(CC1)CN(CC(C)(C)O)C(=O)N2CC1CC1 | 1870 | 54 | –
9 | CN(C)[C@]1(c2ccccc2)CC[C@]2(CC1)CN(C1CCNCC1)C(=O)N2CC1CC1 | 1300 | 26 | –
10 | CN(C)[C@]1(c2ccccc2)CC[C@]2(CC1)CN(CC1(N)CC1)C(=O)N2CC1CC1 | 495 | 5 | –
11 | CC(=O)N1C[C@]2(CC[C@](c3ccccc3)(N(C)C)CC2)NC1=O | 1430 | 119 | –
12 | CC(=O)N1C(=O)NC[C@]12CC[C@](c1ccccc1)(N(C)C)CC2 | – | – | 15
13 | CN(C)[C@]1(c2ccccc2)CC[C@]2(CC1)CN(CC(C)(C)N1C(=O)CCC1=O)C(=O)N2CC1CC1 | – | 118 | –
14 | CN(C)[C@]1(c2ccccc2)CC[C@]2(CC1)CN(CC(C)(C)N1CCCC1=O)C(=O)N2CC1CC1 | 255 | 10 | –
15 | CN(C)[C@]1(c2ccccc2)CC[C@]2(CC1)CN(CCS(C)(=O)=O)C(=O)N2CC1CC1 | 245 | 11 | –
16 | CN(C)[C@]1(c2ccccc2)CC[C@]2(CC1)CN(CCC1(O)COC1)C(=O)N2CC1CCC1 | 63 | 1 | –
17 | CN(C)[C@]1(c2ccccc2)CC[C@]2(CC1)CN(C1CCN(c3ccnnc3)CC1)C(=O)N2CC1CC1 | 330 | 36 | –
18 | CN(C)[C@]1(c2ccccc2)CC[C@@]2(CC1)CN(CCS(C)(=O)=O)C(=O)N2CC1(O)CCC1 | 96 | 395 | –
19 | CN(C)[C@]1(c2ccccc2)CC[C@]2(CC1)CN(C1CCN(c3ccccc3)CC1)C(=O)N2CC1CC1 | 1050 | 3 | –
